Consider one compound from patent US6680322B2, “Compounds specific to adenosine A1 receptors and uses thereof” (OSI Pharmaceuticals, Inc., priority 1999, dated 2004).

This experiment concerns the target A2a receptor (Homo sapiens, UniProt P29274). In words: Yeast-based A2a receptor assay (antagonist specificity). In kind it is cell-based. Also on record: expressed in transfected cells; host or cells: Saccharomyces cerevisiae (CY8342-derived strains / CY8362, rat Gαs mutants E10K, D229S or E10K+D229S).

As for `CCCn1c(=O)c2[nH]c(C3CCCC3)nc2n(CCC)c1=O`, the “A2a receptor antagonist activity” value is “relatively inert”.
